Data reported in ChEMBL document CHEMBL1255252, “E240V substitution increases catalytic efficiency toward ceftazidime in a new natural TEM-type extended-spectrum beta-lactamase, TEM-149, from Enterobacter aerogenes and Serratia marcescens clinical isolates” (2008).

Experiments:
[1] = Activity of Beta-lactamase TEM-10
[2] = Activity of Beta-lactamase TEM-149 T182M mutant expressed in Escherichia coli HB101
[3] = Ratio of Kcat to Km for Beta-lactamase TEM-149 expressed in Escherichia coli HB101
[4] = Activity of Beta-lactamase TEM-149 expressed in Escherichia coli HB101
[5] = Ratio of Kcat to Km for Beta-lactamase TEM-10
[6] = Ratio of Kcat to Km for Beta-lactamase TEM-149 T182M mutant expressed in Escherichia coli HB101

O=C(Cc1cccs1)N[C@@H]1C(=O)N2C(C(=O)O)=C(/C=C/c3ccc([N+](=O)[O-])cc3[N+](=O)[O-])CS[C@H]12
Km [1]: 47 µM
kcat [1]: 59 s⁻¹
Km [2]: 25 µM
kcat [2]: 26 s⁻¹
kcat/Km [3]: 370000 M⁻¹ s⁻¹
kcat [4]: 7.4 s⁻¹
kcat/Km [5]: 1.25e+06 M⁻¹ s⁻¹
kcat/Km [6]: 1.04e+06 M⁻¹ s⁻¹
